Experimental data as given in paper PMC12030497, “Plasma Protein Binding, Biostability, Metabolite Profiling, and CYP450 Phenotype of TPB15 Across Different Species: A Novel Smoothened Inhibitor for TNBC Therapy” (Pharmaceutics, 2025).

Amino acid sequences for entries named in this document (tags omitted).
UniProt P05177, whole entry: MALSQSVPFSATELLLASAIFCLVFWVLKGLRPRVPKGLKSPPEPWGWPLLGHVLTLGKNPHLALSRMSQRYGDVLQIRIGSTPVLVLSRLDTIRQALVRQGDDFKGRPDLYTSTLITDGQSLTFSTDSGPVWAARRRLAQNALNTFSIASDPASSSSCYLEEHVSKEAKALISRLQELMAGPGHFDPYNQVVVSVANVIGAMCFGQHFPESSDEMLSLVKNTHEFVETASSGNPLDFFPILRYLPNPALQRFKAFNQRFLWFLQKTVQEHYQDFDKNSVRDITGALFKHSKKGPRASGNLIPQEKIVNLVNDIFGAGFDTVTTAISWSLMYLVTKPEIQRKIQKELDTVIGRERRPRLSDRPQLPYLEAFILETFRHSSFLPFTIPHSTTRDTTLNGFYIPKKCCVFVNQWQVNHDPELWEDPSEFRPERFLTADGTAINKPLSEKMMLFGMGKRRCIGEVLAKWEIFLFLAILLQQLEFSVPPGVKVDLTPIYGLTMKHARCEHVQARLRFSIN

Target: CYP1A2 (Homo sapiens, UniProt P05177)
Experiment: TPB15 metabolism in human liver microsomes with CYP1A2 inhibitor
Format: in vitro ADME
Settings: inhibition of TPB15 metabolism, HLM, 90 min, α-Naphthoflavone 10 μM (CYP1A2)
Method: The specific inhibitors of P450 were employed to evaluate the metabolic phenotype of TPB15, and the metabolic enzymes corresponding to each inhibitor and the system concentration are shown in Table 2. The specific procedure was as follows: a total of 0.5 μL of the substrate TPB15 and 0.5 μL of each specific inhibitor were mixed with 449 μL of human liver microsomes, and the mixture was incubated at 37 °C for 10 min. Subsequently, 50 μL of NADPH with a concentration of 10 mM in PBS were introduced to initiate the reaction. After 90 min, 50 μL of the reaction mixture were transferred to a 150 μL ice-cold methanol solution containing an internal standard to terminate the reaction. The mixture was vortexed for 2 min and then centrifuged at 4 °C at 14,800 rpm for 10 min. A volume of 130 μL of the supernatant was then transferred to a new EP tube, which was centrifuged again at 4 °C at 14,800 rpm for another 10 min. Finally, 5 μL of the supernatant were injected for the determination of substrate TPB15 concentration. Three parallel samples were prepared for each time point. The experiment also included a positive control group and a negative control group. In the positive control group, substrate TPB15 was incubated with human liver microsomes for 90 min without the addition of inhibitors.

Inhibitor Rate (%): 5.58%
SMILES: O=c1cc(-c2ccccc2)oc2c1ccc1ccccc12 [α-Naphthoflavone]
